Measured values taken from ChEMBL document CHEMBL4842385, “Indirubin Derivatives as Dual Inhibitors Targeting Cyclin-Dependent Kinase and Histone Deacetylase for Treating Cancer” (J Med Chem, 2021).

By UniProt entry, the sequences of proteins in these tests, tags left out. Where a name states a change or a piece, a line headed by the entry shows the natural chain unless it says otherwise.
UniProt P56524: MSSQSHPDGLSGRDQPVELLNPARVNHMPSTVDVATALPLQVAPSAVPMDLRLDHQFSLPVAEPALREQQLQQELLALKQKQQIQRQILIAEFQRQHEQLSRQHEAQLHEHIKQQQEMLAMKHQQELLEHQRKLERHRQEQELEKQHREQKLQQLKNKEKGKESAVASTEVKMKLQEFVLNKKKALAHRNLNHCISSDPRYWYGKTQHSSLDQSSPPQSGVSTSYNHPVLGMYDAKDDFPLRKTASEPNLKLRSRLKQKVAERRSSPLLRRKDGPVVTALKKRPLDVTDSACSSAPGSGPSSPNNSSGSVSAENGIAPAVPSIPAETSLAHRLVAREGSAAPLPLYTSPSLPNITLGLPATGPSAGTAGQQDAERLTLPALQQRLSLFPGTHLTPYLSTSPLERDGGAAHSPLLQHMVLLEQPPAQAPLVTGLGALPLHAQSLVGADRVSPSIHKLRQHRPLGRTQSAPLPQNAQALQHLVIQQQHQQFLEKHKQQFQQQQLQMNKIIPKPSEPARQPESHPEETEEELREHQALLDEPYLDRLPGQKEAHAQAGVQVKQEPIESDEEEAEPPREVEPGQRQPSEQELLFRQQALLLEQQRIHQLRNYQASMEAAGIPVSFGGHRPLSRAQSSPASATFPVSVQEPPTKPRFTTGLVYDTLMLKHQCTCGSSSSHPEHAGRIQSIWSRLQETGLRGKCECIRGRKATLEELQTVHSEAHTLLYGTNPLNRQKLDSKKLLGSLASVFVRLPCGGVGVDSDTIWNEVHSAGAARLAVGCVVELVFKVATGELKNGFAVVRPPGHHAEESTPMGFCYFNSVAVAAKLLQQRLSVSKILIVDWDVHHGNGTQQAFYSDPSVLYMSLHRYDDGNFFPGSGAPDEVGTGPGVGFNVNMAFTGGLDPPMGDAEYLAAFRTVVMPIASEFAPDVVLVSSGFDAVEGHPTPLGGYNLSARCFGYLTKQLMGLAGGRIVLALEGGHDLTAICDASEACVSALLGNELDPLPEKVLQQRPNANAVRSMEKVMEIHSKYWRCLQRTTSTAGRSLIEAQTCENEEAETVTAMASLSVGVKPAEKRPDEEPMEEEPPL

Target: Histone deacetylase 4 (Homo sapiens, UniProt P56524)
Assay: Inhibition of HDAC4 (unknown origin) measured after 30 mins by fluorescence microplate reader assay

- IC50: > 5 µM
SMILES: CN1CCc2c(c3ccccc3n2Cc2ccc(C(=O)NO)cc2)C1 [TUBASTATIN A]
